AlphaSeq binding of Ab-14 heavy chain variants to a spike HR2 peptide

Values reported by Engelhart et al. 2022, doi:10.1038/s41597-022-01779-4 (FLAb copy).

Target peptide (SARS-CoV-2 spike, HR2 region): PDVDLGDISGINAS

Parent: Ab-14, a human scFv built as VH, the linker GGGGSGGGGSGGGGS, VL. Only the CDRs of the heavy chain vary.
VH: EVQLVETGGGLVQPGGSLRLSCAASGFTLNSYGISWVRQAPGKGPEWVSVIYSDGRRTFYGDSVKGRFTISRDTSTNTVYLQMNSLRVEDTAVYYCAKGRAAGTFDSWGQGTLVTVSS
VL: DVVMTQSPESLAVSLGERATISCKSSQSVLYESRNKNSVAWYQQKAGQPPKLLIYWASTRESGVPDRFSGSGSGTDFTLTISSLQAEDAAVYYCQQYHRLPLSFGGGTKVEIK

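Variants in AAYL49 differ from the parent at up to three CDR positions; double and triple changes were sampled at random. In AlphaSeq, yeast of one mating type display the scFv and yeast of the other type display the target. Binding brings cells together so that they mate, and sequencing counts the barcode pairs among the diploids. The ratio of observed to expected reads was calibrated, replicate by replicate, on BCL2-family standards whose Kd was known from biolayer interferometry. The assay was run in three technical replicates.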

Sequences are complete VH domains.
The read-out is the apparent dissociation constant on a log10 scale (nM): the lower, the stronger.
An entry "nd" has no value in the source: the pair was not observed among the diploids in that replicate. This suggests poor binding but is not conclusive.
Three control strains display no target. For library AAYL49, 15% of the pairings with them gave a signal, with a median of 4.06 and one signal in twenty below 2.83, so weak values seen in few replicates may be background. Also given: how often the same scFv was detected with the empty control strains, with their mean in brackets.

| VH | replicates, log10 nM | signal with controls |
|---|---|---|
| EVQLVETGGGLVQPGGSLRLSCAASGFTLNSYGISWVRQAPGKGPEWVSFIYSDGRRTFYGWSVKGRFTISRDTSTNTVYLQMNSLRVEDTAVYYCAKGRAKGTFDSWGQGTLVTVSS | nd nd nd | 0 of 9 |
| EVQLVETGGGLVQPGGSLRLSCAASGSTLNSYGISWVRQAPGKGPEWVSVIYSDGRRTFYGDSVKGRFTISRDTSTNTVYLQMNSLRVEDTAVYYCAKGGAAGTFDGWGQGTLVTVSS | nd nd nd | 2 of 9 (4.32) |
| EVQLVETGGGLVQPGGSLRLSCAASGFTLNSYGISWVRQAPGKGPEWVSVIYSDGDRTFKGDSVKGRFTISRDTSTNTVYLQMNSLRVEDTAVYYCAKGPAAGTFDSWGQGTLVTVSS | nd nd nd | 0 of 9 |
| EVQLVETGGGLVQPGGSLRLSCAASGFTLNSYGISWVRQAPGKGPEWVSVIYSDGERTFYGDAVKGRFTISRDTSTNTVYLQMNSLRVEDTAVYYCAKGRAAGTFDSWGQGTLVTVSS | 0.62 0.83 0.75 | 3 of 9 (5.49) |
| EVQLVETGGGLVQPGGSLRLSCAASGFTLNSYGISWVRQAPGKGPEWVSVIYSDGRRTFYGDKVKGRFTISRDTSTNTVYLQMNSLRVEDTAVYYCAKGRDAGTPDSWGQGTLVTVSS | nd nd nd | 1 of 9 (4.41) |
| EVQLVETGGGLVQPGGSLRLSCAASGFTLNSPGISWVRQAPGKGPEWVSVIGSDGRYTFYGDSVKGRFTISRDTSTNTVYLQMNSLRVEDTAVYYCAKGRAAGTFDSWGQGTLVTVSS | nd nd nd | 0 of 9 |
| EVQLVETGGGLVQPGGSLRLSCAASGFTLNSYGISWVRQAPGKGPEWVSVIYSDGRRRFYGSSVKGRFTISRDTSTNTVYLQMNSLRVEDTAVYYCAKGRAAGTFDSWGQGTLVTVSS | nd nd nd | 0 of 9 |
| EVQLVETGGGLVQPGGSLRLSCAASGFSLNSYGISWVRQAPGKGPEWVSVIYSDGRRTFYGDSVKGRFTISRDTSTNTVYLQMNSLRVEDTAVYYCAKGRAWGTFDSWGQGTLVTVSS | 2.28 1.85 2.32 | 4 of 9 (4.70) |
| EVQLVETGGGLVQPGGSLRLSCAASEFTLNSYGISWVRQAPGKGPEWVSPIYSDGRRTFYGDSVMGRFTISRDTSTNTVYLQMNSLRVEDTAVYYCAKGRAAGTFDSWGQGTLVTVSS | nd nd nd | 0 of 9 |
| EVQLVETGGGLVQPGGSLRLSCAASGFTLNSYGISWVRQAPGKGPEWVSVISSDGRRTFYGDSVKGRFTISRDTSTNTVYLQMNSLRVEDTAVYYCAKGRAAGTFGSWGQGTLVTVSS | nd nd nd | 0 of 9 |
| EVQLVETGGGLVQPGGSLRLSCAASYFTLNSYGISWVRQAPGKGPEWVSVIYSDGRRTFYDDSVKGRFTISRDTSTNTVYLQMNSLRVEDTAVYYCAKGRAAGSFDSWGQGTLVTVSS | 2.08 1.99 2.06 | 2 of 9 (3.45) |
| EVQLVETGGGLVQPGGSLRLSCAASVFPLNSYGISWVRQAPGKGPEWVSVIYSDGRRTFYGDYVKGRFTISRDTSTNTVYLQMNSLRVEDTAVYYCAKGRAAGTFDSWGQGTLVTVSS | nd 3.37 nd | 2 of 9 (4.21) |
| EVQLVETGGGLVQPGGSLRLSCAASVFTLNSYGISWVRQAPGKGPEWVSVGYSDGRRTFYGDSVKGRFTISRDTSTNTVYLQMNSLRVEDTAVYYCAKGHAAGTFDSWGQGTLVTVSS | 4.29 2.95 nd | 2 of 9 (4.29) |

Further variants, results first:

| replicates, log10 nM | signal with controls | VH |
|---|---|---|
| nd nd nd | 0 of 9 | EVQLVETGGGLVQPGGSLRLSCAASGFTLNSYGISWVRQAPGKGPEWVSVIYSDGQGTFYGDSVYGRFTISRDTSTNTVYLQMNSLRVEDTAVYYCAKGRAAGTFDSWGQGTLVTVSS |
| nd nd nd | 2 of 9 (4.01) | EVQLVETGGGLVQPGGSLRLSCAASGFTLNSYGISWVRQAPGKGPEWVSVLYEDGRRTFYGDSVKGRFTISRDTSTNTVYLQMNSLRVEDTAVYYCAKGRAAGTFSSWGQGTLVTVSS |
| nd nd nd | 1 of 9 (2.29) | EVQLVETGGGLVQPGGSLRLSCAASGFTLNSYGISWVRQAPGKGPEWVSVIYQDGRRTFYGMSVKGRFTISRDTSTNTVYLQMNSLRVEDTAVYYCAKGRAAGTGDSWGQGTLVTVSS |
| nd nd nd | 0 of 9 | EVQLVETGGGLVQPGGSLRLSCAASGFTLNSYGISWVRQAPGKGPEWVSVRYSDGRRTFYGDSVKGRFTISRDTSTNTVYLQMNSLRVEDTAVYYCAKGRAAGQFKSWGQGTLVTVSS |
| nd nd nd | 0 of 9 | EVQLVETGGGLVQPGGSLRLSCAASGFTLNSYGIPWVRQAPGKGPEWVSVIPSDGRRTFYGDSVKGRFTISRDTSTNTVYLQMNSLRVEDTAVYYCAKGRAAGTFFSWGQGTLVTVSS |
| nd nd nd | 0 of 9 | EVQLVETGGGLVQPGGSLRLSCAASGFTLNSYGISWVRQAPGKGPEWVSVIYSDGRRTQYGDSVKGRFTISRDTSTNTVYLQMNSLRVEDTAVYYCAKGPAAGTFWSWGQGTLVTVSS |
| nd nd nd | 0 of 9 | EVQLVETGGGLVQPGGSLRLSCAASGFTLNSYGISWVRQAPGKGPEWVSVIYSDGRRTFYHDSVKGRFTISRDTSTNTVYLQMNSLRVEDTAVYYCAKGRLAGGFDSWGQGTLVTVSS |
| nd nd nd | 2 of 9 (5.05) | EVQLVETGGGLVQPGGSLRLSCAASGFTMNSYVISWVRQAPGKGPEWVSVIYSDGRRTFYGDSVKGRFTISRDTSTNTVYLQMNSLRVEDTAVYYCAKGRACGTFDSWGQGTLVTVSS |
| nd 2.58 nd | 3 of 9 (4.14) | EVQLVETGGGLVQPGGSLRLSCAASGFTLNSYGICWVRQAPGKGPEWVSVIYSDGWRTFYGDSVKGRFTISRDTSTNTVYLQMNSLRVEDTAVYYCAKGRCAGTFDSWGQGTLVTVSS |
| 4.70 nd nd | 4 of 9 (4.58) | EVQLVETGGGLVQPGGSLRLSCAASGFTLNSYGISWVRQAPGKGPEWVSFIYSDGRRTFYGDSVKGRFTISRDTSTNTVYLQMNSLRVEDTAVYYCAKGRAAGYFDCWGQGTLVTVSS |
| nd nd nd | 0 of 9 | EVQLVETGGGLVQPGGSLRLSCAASGFTLNSYGISWVRQAPGKGPEWVSVKYSDGRRTSYGDSVKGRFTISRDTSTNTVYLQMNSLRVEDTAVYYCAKGRAADTFDSWGQGTLVTVSS |
| nd nd nd | 0 of 9 | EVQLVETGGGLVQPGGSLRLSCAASGFTLNSYGISWVRQAPGKGPEWVSVIYSDGRRTFYGDSVVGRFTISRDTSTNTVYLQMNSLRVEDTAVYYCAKGRAARCFDSWGQGTLVTVSS |
| nd 3.34 nd | 1 of 9 (4.45) | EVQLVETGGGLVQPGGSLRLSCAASNFTENSKGISWVRQAPGKGPEWVSVIYSDGRRTFYGDSVKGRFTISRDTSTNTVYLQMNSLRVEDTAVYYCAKGRAAGTFDSWGQGTLVTVSS |

3 of these entries, quoted again:

{"VH": "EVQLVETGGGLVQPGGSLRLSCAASGFTLNSYGISWVRQAPGKGPEWVSFIYSDGRRTFYGWSVKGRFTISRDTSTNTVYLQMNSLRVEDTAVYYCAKGRAKGTFDSWGQGTLVTVSS", "replicates, log10 nM": "nd nd nd", "signal with controls": "0 of 9"}
{"VH": "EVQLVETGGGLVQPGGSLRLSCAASYFTLNSYGISWVRQAPGKGPEWVSVIYSDGRRTFYDDSVKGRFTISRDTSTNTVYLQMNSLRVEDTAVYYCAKGRAAGSFDSWGQGTLVTVSS", "replicates, log10 nM": "2.08 1.99 2.06", "signal with controls": "2 of 9 (3.45)"}
{"VH": "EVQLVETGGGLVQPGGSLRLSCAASGFTLNSYGISWVRQAPGKGPEWVSVIYSDGRRTFYGDKVKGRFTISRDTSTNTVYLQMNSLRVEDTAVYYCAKGRDAGTPDSWGQGTLVTVSS", "replicates, log10 nM": "nd nd nd", "signal with controls": "1 of 9 (4.41)"}